# Laboratory results as given in PubChem BioAssay (NCI).
# Where “and” joins values, the source holds several entries; their conditions need not be identical. Identical values can stand only once. Only a part is listed here, and it is no random draw.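 Treatment: one concentration, 48 hours, 96-well format. Scoring: percent growth, with anything below 10 considered active.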 Calls of active or inactive are those of the source.
# Assays:
# Experiment in all cases: NCI-60 one-dose screen, 48 h (100 = growth as untreated, 0 = no growth, -100 = all killed)
# Conditions in all cases: 10 µM unless noted
# [1] = test system: NCI-H23 lung
# [2] = test system: NCI-H226 lung
# [3] = test system: NCI-H322M lung
# [4] = test system: HOP-62 NSCLC
# [5] = test system: NCI-H460 lung
# [6] = test system: HOP-92 NSCLC
# [7] = test system: NCI-H522 lung
# [8] = test system: A549/ATCC NSCLC
# [9] = test system: 786-0 renal
# [10] = test system: COLO 205 colon
# [11] = test system: DU-145 prostate
# [12] = test system: K-562 leukemia
# [13] = test system: MALME-3M melanoma
# [14] = test system: MDA-MB-231 breast
# [15] = test system: RXF 393 renal
# [16] = test system: SF-268 CNS
# [17] = test system: SF-295 CNS
# [18] = test system: SF-539 CNS
# [19] = test system: UACC-257 melanoma
# [20] = test system: M14 melanoma
SMILES,growth [1],growth [2],growth [3],growth [4],growth [5],growth [6],growth [7],growth [8],growth [9],growth [10],growth [11],growth [12],growth [13],growth [14],growth [15],growth [16],growth [17],growth [18],growth [19],growth [20]
S=C(Nc1ccccc1)N(CCCl)CCCl,inactive: 102%,inactive: 99.5%,inactive: 110%,inactive: 110%,inactive: 102%,inactive: 61.7%,inactive: 78%,inactive: 91.7%,inactive: 102%,inactive: 123%,inactive: 110%,inactive: 101%,inactive: 108%,inactive: 108%,inactive: 106%,inactive: 106%,inactive: 105%,inactive: 89.1%,inactive: 104%,inactive: 99.4%
CCN(CCCl)CC1COc2ccccc2O1 (stereo not given),inactive: 98.2%,inactive: 107%,inactive: 103%,inactive: 91.6%,inactive: 108%,inactive: 109%,inactive: 90.7%,inactive: 93.2%,inactive: 106%,inactive: 108%,inactive: 111%,inactive: 105%,inactive: 103%,inactive: 104%,inactive: 108%,inactive: 108%,inactive: 95.9%,inactive: 98.6%,–,inactive: 101%
N/C(=N\N=C\c1ccc([N+](=O)[O-])o1)N[N+](=O)[O-],inactive: 97.8%,inactive: 97.6%,inactive: 104%,inactive: 98.8%,inactive: 99.9%,inactive: 128%,inactive: 85.4%,inactive: 91.4%,inactive: 107%,inactive: 90.6%,inactive: 110%,inactive: 101%,inactive: 81%,inactive: 92.8%,inactive: 110%,inactive: 96.4%,inactive: 101%,–,inactive: 94.7%,inactive: 98.6%
O=C(CBr)c1ccc([N+](=O)[O-])cc1,inactive: 104%,inactive: 108%,inactive: 87.5%,inactive: 102%,inactive: 114%,inactive: 80.3%,inactive: 80.3%,inactive: 107%,inactive: 110%,inactive: 110%,inactive: 115%,inactive: 98.6%,inactive: 113%,inactive: 95.1%,inactive: 122%,inactive: 112%,inactive: 114%,inactive: 106%,inactive: 101%,inactive: 110%
NCCNCCCl,inactive: 107%,inactive: 99.2%,inactive: 114%,inactive: 105%,inactive: 111%,inactive: 90.2%,inactive: 103%,inactive: 96.2%,inactive: 105%,inactive: 115%,inactive: 118%,inactive: 113%,inactive: 124%,inactive: 110%,inactive: 133%,inactive: 101%,inactive: 108%,inactive: 104%,inactive: 89.7%,inactive: 103%
CC(=O)NC(C)C(=O)N(CC(C)Cl)CC(C)Cl (stereo not given),inactive: 105%,inactive: 93.5%,inactive: 102%,inactive: 108%,inactive: 107%,inactive: 99.9%,inactive: 84.6%,inactive: 90.5%,inactive: 97.8%,inactive: 107%,inactive: 107%,inactive: 99.5%,inactive: 101%,inactive: 103%,inactive: 101%,inactive: 103%,–,inactive: 92.4%,inactive: 88.3%,inactive: 102%
Nc1ccc([As](=O)(O)c2ccc(N)cc2)cc1,inactive: 96.1%,inactive: 102%,inactive: 105%,inactive: 96.4%,inactive: 108%,inactive: 82.9%,inactive: 91.2%,inactive: 101%,inactive: 105%,inactive: 97.7%,inactive: 111%,inactive: 123%,inactive: 109%,inactive: 107%,inactive: 83.2%,inactive: 98.2%,inactive: 105%,inactive: 98.8%,inactive: 78.7%,inactive: 101%
COc1cc([N+](=O)[O-])c(Nc2ccc(Cl)cc2[N+](=O)[O-])c([N+](=O)[O-])c1,inactive: 39%,inactive: 80.3%,inactive: 70%,inactive: 56.2%,inactive: 43.5%,inactive: 85.9%,active: -67.8%,inactive: 61.6%,inactive: 86%,inactive: 66.2%,inactive: 34.9%,inactive: 46.1%,inactive: 81.4%,inactive: 83.3%,inactive: 13.1%,inactive: 80.5%,inactive: 75.7%,inactive: 64.8%,inactive: 71.2%,inactive: 82.4%
O=C1OP(=O)(Cl)Oc2ccccc21 (stereo not given),inactive: 101%,inactive: 101%,inactive: 98.3%,inactive: 93.5%,inactive: 109%,inactive: 84.1%,inactive: 87%,inactive: 87.5%,inactive: 102%,inactive: 119%,inactive: 107%,inactive: 98.5%,inactive: 108%,inactive: 104%,inactive: 117%,inactive: 101%,inactive: 103%,inactive: 97.1%,inactive: 95.7%,inactive: 112%
CC(/C=N/N=C(\N)N[N+](=O)[O-])=N\N=C(/N)N[N+](=O)[O-],inactive: 115%,inactive: 96.2%,inactive: 106%,inactive: 112%,inactive: 109%,inactive: 109%,inactive: 95.3%,inactive: 92.9%,inactive: 104%,inactive: 117%,inactive: 117%,inactive: 116%,inactive: 109%,inactive: 105%,inactive: 95%,inactive: 114%,–,inactive: 95.3%,inactive: 95.6%,inactive: 102%
NC1=NCC(Br)CS1 (stereo not given),inactive: 94.6%,inactive: 103%,inactive: 106%,inactive: 107%,inactive: 102%,inactive: 76.5%,inactive: 92.6%,inactive: 90%,inactive: 90.6%,inactive: 113%,inactive: 100%,inactive: 99%,inactive: 102%,inactive: 92.8%,inactive: 109%,inactive: 108%,inactive: 102%,inactive: 111%,–,inactive: 92.6%
CC(=O)Nc1ccc([As](=O)(O)O)c(O)c1,inactive: 108%,inactive: 106%,inactive: 92.1%,inactive: 111%,inactive: 103%,inactive: 68.1%,inactive: 100%,inactive: 96.4%,inactive: 117%,inactive: 106%,inactive: 105%,inactive: 97.4%,inactive: 112%,inactive: 105%,inactive: 134%,inactive: 102%,inactive: 103%,inactive: 99%,inactive: 99.3%,inactive: 109%
Cc1cc([N+](=O)[O-])cc([N+](=O)[O-])c1O,inactive: 100%,inactive: 98.5%,inactive: 94.9%,inactive: 96.8%,inactive: 106%,inactive: 88.7%,inactive: 105%,inactive: 96.6%,inactive: 101%,inactive: 117%,inactive: 111%,inactive: 107%,inactive: 109%,inactive: 111%,inactive: 117%,inactive: 99.4%,inactive: 100%,inactive: 101%,inactive: 90.7%,inactive: 102%
O=[N+]([O-])c1ccc(-c2cc([N+](=O)[O-])c(O)c([N+](=O)[O-])c2)cc1,inactive: 104% and inactive: 112%,inactive: 96.2%,inactive: 102%,inactive: 99% and inactive: 107%,inactive: 112% and inactive: 105%,inactive: 91.5%,inactive: 112% and inactive: 92.4%,inactive: 101% and inactive: 107%,inactive: 103% and inactive: 94.9%,inactive: 100% and inactive: 108%,inactive: 114% and inactive: 99.1%,inactive: 102% and inactive: 90.5%,inactive: 108%,inactive: 101% and inactive: 117%,inactive: 111% and inactive: 114%,inactive: 105% and inactive: 96.1%,inactive: 85.7% and inactive: 101%,inactive: 97.1% and inactive: 108%,inactive: 114% and inactive: 107%,inactive: 107% and inactive: 108%
